Results: PubChem BioAssay AID1259371 (The Scripps Research Institute Molecular Screening Center, 2018)
Calls of active or inactive are those of the source. The rule behind the calls is not given here.

Sequences of proteins named here, by UniProt entry; tags and fusion partners are left off. A change or cut given only in a name is not applied to a line headed by its entry.
UniProt O75030: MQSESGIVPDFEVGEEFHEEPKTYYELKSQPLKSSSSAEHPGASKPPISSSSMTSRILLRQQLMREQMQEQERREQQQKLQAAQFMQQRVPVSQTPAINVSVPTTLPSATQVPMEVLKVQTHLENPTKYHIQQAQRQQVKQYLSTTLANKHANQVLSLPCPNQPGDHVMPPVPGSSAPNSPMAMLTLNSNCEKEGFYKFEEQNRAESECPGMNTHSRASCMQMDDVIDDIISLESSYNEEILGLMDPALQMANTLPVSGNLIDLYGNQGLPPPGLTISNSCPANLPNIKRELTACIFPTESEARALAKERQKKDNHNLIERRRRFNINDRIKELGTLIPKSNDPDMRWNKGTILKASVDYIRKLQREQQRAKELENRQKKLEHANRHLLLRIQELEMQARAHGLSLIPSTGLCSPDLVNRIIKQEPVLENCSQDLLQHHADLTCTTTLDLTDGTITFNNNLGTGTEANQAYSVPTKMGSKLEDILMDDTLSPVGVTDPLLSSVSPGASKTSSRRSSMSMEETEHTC

Biological target: Microphthalmia-associated transcription factor (Homo sapiens) (UniProt O75030)
Assay: compounds blocking human MITF signal – biochemical, AlphaScreen, dose response (AID 1259371)
Settings: AlphaScreen biochemical MITF assay, signal inhibition

| Structure (SMILES) | IC50 |
| --- | --- |
| CC(C)OP(=O)(OC(C)C)C(=O)c1ccco1 | inactive |
| Cc1ccc([N+](=O)[O-])c2no[n+]([O-])c12 | 0.0166 µM |
